Source: PubChem BioAssay AID1645886 (National Center for Advancing Translational Sciences (NCATS), 2021)
The list shows a part of the results, in another mix than the full data. Some results for these compounds are left out of this collection, so the calls shown say nothing about other tests. Results filed as inconclusive are left out. Activity calls are given as the source filed them. Calls follow the shape of the dose curve; as a rule, active = well fitted inhibition curve with a large enough effect; inconclusive = small, poorly fitted or top-dose-only effect; inactive = no such curve, though single readings can be large or run the other way.

Chains of the proteins cited; added tags and fusions are not shown.
UniProt Q8WZA2, whole entry: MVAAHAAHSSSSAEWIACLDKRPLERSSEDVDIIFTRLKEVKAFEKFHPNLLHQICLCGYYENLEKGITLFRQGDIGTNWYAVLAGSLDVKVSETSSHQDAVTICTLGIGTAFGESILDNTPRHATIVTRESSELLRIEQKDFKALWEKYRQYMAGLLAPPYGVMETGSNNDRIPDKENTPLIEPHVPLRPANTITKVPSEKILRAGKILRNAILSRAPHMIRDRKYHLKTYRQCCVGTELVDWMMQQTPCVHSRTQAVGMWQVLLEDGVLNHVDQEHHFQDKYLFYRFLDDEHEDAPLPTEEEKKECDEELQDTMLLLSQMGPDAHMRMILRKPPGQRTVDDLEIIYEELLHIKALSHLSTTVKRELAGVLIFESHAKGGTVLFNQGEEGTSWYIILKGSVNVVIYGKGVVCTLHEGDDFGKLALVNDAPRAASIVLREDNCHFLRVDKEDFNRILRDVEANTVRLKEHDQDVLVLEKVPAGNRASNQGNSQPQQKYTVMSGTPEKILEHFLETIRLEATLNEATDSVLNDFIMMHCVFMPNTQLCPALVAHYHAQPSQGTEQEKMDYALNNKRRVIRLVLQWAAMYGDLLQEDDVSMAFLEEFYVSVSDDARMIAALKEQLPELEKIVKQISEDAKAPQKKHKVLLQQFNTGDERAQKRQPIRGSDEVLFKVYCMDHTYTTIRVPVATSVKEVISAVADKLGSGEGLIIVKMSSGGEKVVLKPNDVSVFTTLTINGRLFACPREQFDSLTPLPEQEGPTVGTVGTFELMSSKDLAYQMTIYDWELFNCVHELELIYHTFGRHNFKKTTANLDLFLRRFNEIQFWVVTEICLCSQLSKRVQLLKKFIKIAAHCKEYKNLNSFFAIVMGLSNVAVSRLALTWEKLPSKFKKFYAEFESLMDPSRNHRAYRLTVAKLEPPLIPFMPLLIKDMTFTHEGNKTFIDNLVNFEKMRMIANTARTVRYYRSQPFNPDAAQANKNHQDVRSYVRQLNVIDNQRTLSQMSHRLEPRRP

Molecular target: Rap guanine nucleotide exchange factor 4 (Homo sapiens) (UniProt Q8WZA2)
Experiment: Validation qHTS for antagonist of cAMP-regulated guanine nucleotide exchange factor 4 (EPAC2);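 also: 100% = activation by cAMP agonist control; nearly all actives have a fitted effect of over 40% in size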
Details: EPAC2 Rap1B BODIPY-GDP exchange, fluorescence; at 112 µM (top of the series)
Text: Principle Investigator: Xiaodong Cheng Ph.D. The University of Texas Medical Branch, […], TX MLPCN Grant: NS066510 In multi-cellular eukaryotic organisms, the effects of cAMP are transduced by two ubiquitously-expressed intracellular cAMP receptors, the classic protein kinase A/cAMP-dependent protein kinase (PKA/cAPK) and the more recently discovered exchange protein directly activated by cAMP/cAMP-regulated guanine nucleotide exchange factor (EPAC/cAMP-GEF). Both PKA and EPAC are ubiquitously expressed in all tissues, and an increase in intracellular cAMP levels will lead to the activation of both PKA and EPAC. […] This qHTS will be used to screen the Molecular Libraries Small Molecule Repository (MLSMR) as a concentration-titration series using the NCGC unique quantitative screening (qHTS) platform to find activators for EPAC1. […] Activators are identified by monitoring the change in fluorescence signal as the exchanged free BODIPY-GDP has a reduced fluorescence compared to Rap1-bound BODIPY-GDP. […]
Briefly, three uL of reagents (100 nM EPAC2, 250 nM RAP1B-BODIPY-GDP, 50 uM GDP) were dispensed into a 1536-well Greiner black solid-bottom medium binding assay plate. […] The assay plates were read at 5 minute intervals for 30 minutes in the ViewLux plate reader using 480nm excitation and 540nm emission filters. […]

| SMILES | activity, negative = inhibition |
| --- | --- |
| CN1CCCC(OC(=O)C(O)(c2ccccc2)c2ccccc2)C1 (stereo unspecified) | inactive: 4.32% |
